Only some compounds are listed: those with a hit (about 3.7% of all), similar ones and a draw of the others.
ClpP mod = qHTS Assay for Activators of ClpP. actives 1.9% (n = 340,000). Potency, µM (series often up to 57.5 µM), for the others: at the top dose activity change, negative = active. ATP-dependent Clp protease proteolytic subunit (Bacillus subtilis (strain 168)), P80244. AID 651965, 2013. purified B. subtilis ClpP, FRET peptide cleavage, 20 min; active = well fitted falling curve with a large enough effect; inconclusive = small, poorly fitted or top-dose-only effect; inactive = no such curve, though single readings can be large or run the other way; note: potency is the fitted concentration of half-maximal effect; the source files actives as falling curves though it sought activators and does not explain the sign; nearly all actives have a fitted effect of over 65% in size
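Buffer: 100 mM Tris/HCl pH8, 100 mM KCl, 0.05% low protease BSA, 2.5% glycerol, 0.01% Tween-20. ClpP 10 microg/mL final; 20 min RT; delta FRET normalized to ADEP and DMSO controls.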
miR-21 reporter = raises the signal of a miR-21 reporter | Potency, µM (highest dose often 38.3 µM), without a hit: at the top dose reporter change, positive = more light | HeLa miR-21 FLuc reporter, luciferase, 48 h | 340,000 tested, under 10 active; active = well fitted rising curve with a large enough effect; inconclusive = small, poorly fitted or top-dose-only effect; inactive = no such curve, though single readings can be large or run the other way;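 further: % of control where 0% means no effect; miR-21 action dims this reporter so a rising signal means less miR-21 action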
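HeLa cells stably expressing CMV-driven firefly luciferase with a downstream miR-21 binding sequence, endogenously expressing miR-21, were treated with titrations (up to about 40uM final) for 48 hours at 37 degree Celsius. Luciferase luminescence was read after lysis.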
A549 viability = kills or reduces viability of A549 cells in Nrf2 counter-screen | A549 ARE-Fluc cells, CellTiter-Fluor viability, 18-24 h | Potency, µM (top dose mostly 46 µM), without a hit: at the highest dose activity change, negative = cytotoxicity, hits mostly inhibitors | actives 0.16% (n = 390,000); note: potency is the fitted concentration of half-maximal effect; % is set by controls: 0 for no effect and ±100 for the full control effect
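A549 ARE-Fluc cells in 5% FBS OPTI-MEM, 5000 cells/well, rested 2 h then exposed to compounds in concentration-response for 18-24 h at 37 °C. Viability by CellTiter-Fluor fluorescence (Ex 405/Em 525) after 30 min; luciferase luminescence (BugLite, 15 min, RT) read afterwards.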
Nrf2 ARE act = activators of Nrf2 (ARE) signaling; AREc32 ARE-luciferase reporter (MCF7-derived line), luminescence, 24 h; Potency, µM (titrated, usually from 46.1 µM), for the others: at the highest dose activation, actives largely listed as activators; actives 0.31% (n = 410,000); AID 624171; note: potency is the fitted concentration of half-maximal effect; % of control where 0% means no effect; nearly all actives have a fitted effect of over 65% in size
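Steps: seed AREc32_Fluc cells (1000/well, 5% FBS OPTI-MEM); incubate overnight at 37 deg C; add 23 nL compound; incubate 24 hr; add Steady-Glo; hold 30 min RT; read luminescence.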
Nrf2 inh = inhibitors of Nrf2 signaling; A549 ARE-Fluc reporter, luciferase luminescence, 18-24 h; Potency, µM (highest dose often 46 µM), for the others: at the top dose activity change, negative = inhibition, most hits filed as inhibitors; actives 2.1% (n = 360,000); AID 504444; note: potency is the fitted concentration of half-maximal effect; % is set by controls: 0 for no effect and ±100 for the full control effect; nearly all actives have a fitted effect of over 60% in size
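A549 ARE_Fluc cells (5000/well, 5% FBS OPTI-MEM) pre-incubated 2 h, then treated with compounds 18-24 h at 37C/5% CO2 in concentration-response. CellTiter-Fluor viability read first; BugLite luciferase luminescence after 15 min at room temperature gives Nrf2 activity.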
IL-2 act = activates IL-2 in a cell-based reporter assay; activation, % (series mostly up to about 46 µM); actives 0.065% (n = 360,000); AID 652025; IL-2 activation reporter assay, cell-based qHTS; stimulated with anti-CD3/CD4/CD28 beads; in transgenic mouse T cells; in the data active = activation above about 50%; inconclusive = mostly about 30% to 49%; note: 0% is about no effect
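Unstimulated transgenic mouse T cells preincubated 60 min with compound, then stimulated with anti-CD3/anti-CD4-coated beads plus anti-CD28 for 18 h at 37 degrees C. IL-2 response read as EGFP and DsRed fluorescence by plate cytometry.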
Numbers without * were called inactive; ? = inconclusive; · = no result given; [ ] = another dose, or the depositor's remark. Unless noted, calls come from the whole dose curve; as a rule, active = well fitted curve in the direction sought with a large enough effect; inconclusive = small, poorly fitted or top-dose-only effect, or another doubt; inactive = no such curve, though single readings can be large; an effect the other way counts as inactive or inconclusive.

Sequences of proteins named here, by UniProt entry; tags and fusion partners are left off.
ATP-dependent Clp protease proteolytic subunit (Bacillus subtilis (strain 168)), P80244, UniProt P80244, whole entry, looked up: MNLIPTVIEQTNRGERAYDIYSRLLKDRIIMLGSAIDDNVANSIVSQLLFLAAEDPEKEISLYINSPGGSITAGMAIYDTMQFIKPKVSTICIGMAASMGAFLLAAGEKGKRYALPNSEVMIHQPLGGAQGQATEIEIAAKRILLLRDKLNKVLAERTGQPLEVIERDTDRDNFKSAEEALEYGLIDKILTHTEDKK

| compound | Nrf2 ARE act | Nrf2 inh | ClpP mod | A549 viability | IL-2 act | miR-21 reporter |
| --- | --- | --- | --- | --- | --- | --- |
| Cc1cc(C)c(NC(=O)COC(=O)c2cccc3c2C(=O)c2ccccc2C3=O)c(C)c1 | 0% | 16µM* | 2% | -11% | -3 | -17% |
| O=C(Nc1ccc(Cl)cc1)c1cc2c(-c3ccccc3)nn(-c3ccccc3)c2s1 | -1% | -5% | ? | 0% | · | -5% |
| COc1ccc(-n2c(=O)c3ccccc3n(CC(=O)NCCc3ccccc3)c2=O)c(OC)c1 | -1% | 9%[9.27 µM] | -4% | -10% | · | 6% |
| O=C(NCc1cccnc1)c1ccc(COc2ccccc2Br)cc1 | 0% | ? | · | -3% | -3 | -2% |
| O=C(Nc1cccnc1)c1ccc(COc2ccccc2Br)cc1 | 0% | 13µM* | 0% | -27% | 0 | 3% |
| CCCN1CCC(=NNc2ccc(S(=O)(=O)N(CC)CC)cc2[N+](=O)[O-])CC1 | 0% | -3% | · | -24% | 0 | 17% |
| CCCN1CCC(=NNc2ccc(S(N)(=O)=O)cc2[N+](=O)[O-])CC1 | 3% | 16% | 14µM* | -1% | -5 | -5% |
| Cc1ccc(-n2c3c(cc(C(=O)NCc4ccco4)c2=O)C(=O)CCC3)cc1 | -1% | 1% | -9% | -11% | 1 | -3% |
| O=C1CCCc2c1cc(C(=O)NCc1ccco1)c(=O)n2-c1ccc(Cl)cc1 | 0% | 7% | 20µM* | 23% | 0 | -7% |
| O=Cc1ccc2[nH]ccc2c1 | · | · | 0% | · | · | · |

Brought forward from above: four entries; new compounds follow.
| compound | Nrf2 ARE act | Nrf2 inh | ClpP mod | A549 viability | IL-2 act | miR-21 reporter |
| --- | --- | --- | --- | --- | --- | --- |
| CCCN1CCC(=NNc2ccc(S(N)(=O)=O)cc2[N+](=O)[O-])CC1 | 3% | 16% | 14µM* | -1% | -5 | -5% |
| Cc1ccc(-n2c3c(cc(C(=O)NCc4ccco4)c2=O)C(=O)CCC3)cc1 | -1% | 1% | -9% | -11% | 1 | -3% |
| O=C1CCCc2c1cc(C(=O)NCc1ccco1)c(=O)n2-c1ccc(Cl)cc1 | 0% | 7% | 20µM* | 23% | 0 | -7% |
| O=Cc1ccc2[nH]ccc2c1 | · | · | 0% | · | · | · |
| CC(C)Cc1nc2oc3c(NCCCN4CCOCC4)ncnc3c2c2c1CCC2 | -1% | · | ? | -6% | -3 | -10% |
| CC(C)Cc1nc2oc3c(Cl)ncnc3c2c2c1CCC2 | -1% | 2% | 32µM* | 21% | -3 | -1% |
| COc1ccc2[nH]cc(CCNC(=O)Nc3cc(C)cc(C)c3)c2c1 | 3% | 3% | -4% | 4% | · | ? |
| COc1cc(SC)ccc1C(=O)Nc1ccccn1 | 13µM* | ? | · | -10% | 0 | -6% |
| CCOC(=O)c1c(NC(=O)COc2cccc(C(F)(F)F)c2)sc2c1CCC(C)C2 (centres undefined) | 1% | -12% | -2% | 1% | · | -3% |
| Cc1ccc(CNC(=O)CCCN2C(=O)CCn3nc(-c4cccn4C)cc32)cc1 | 4% | · | -5% | 27% | · | -2% |
| Cc1nc2ccccc2c(=O)n1C1CCCCCC1 | 0% | -14% | 25µM* | 0% | -2 | -22% |
| CC(C)(C)c1ccc(O)c(N=Cc2cccc([N+](=O)[O-])c2)c1 | · | · | 1% | · | · | · |
| c1ccc(-c2ccc(-c3csc4ncnc(Sc5nnnn5-c5ccccc5)c34)cc2)cc1 | · | · | -14% | · | · | · |
| Cc1ccc(Cn2ncc3c(N4CCN(c5ccccc5C)CC4)ncnc32)cc1 | -1% | 21µM* | ? | ? | 0 | 9% |
| COc1ccc(-n2cc(C(=O)Nc3ccccc3C#N)c3ccccc3c2=O)cc1 | 1% | -2% | -6% | -1% | · | -18% |
| O=C(Nc1nnc(-c2ccccc2F)s1)Nc1ccccc1F | 8.9µM* | 10% | · | 9% | -2 | -21% |
| O=C(Nc1nnc(-c2ccccc2SCc2ccccc2)s1)Nc1ccccc1F | 5% | 17% | -12% | -2% | -3 | -4% |
| O=C(Nc1nnc(-c2ccccc2F)s1)C1CCCO1 (centres undefined) | 3.2µM* | ? | -24% | -2% | 0 | -60% |
| Cc1cc(C(=O)COc2cccc([N+](=O)[O-])c2)c(C)n1C1CC1 | 5% | -7% | -3% | 2% | 0 | · |
| Cc1cc(C(=O)COC(=O)c2cccc(O)c2)c(C)n1C1CC1 | -2% | 13µM* | 1% | -1% | -5 | · |
| COc1cc2c(cc1NC(=O)CSc1nc3cc(Cl)ccc3s1)oc1ccccc12 | 5% | 27% | 5.6µM* | 1% | 0 | 6% |
| COc1cc2c(cc1NC(=O)CSc1nc3ccccc3[nH]1)oc1ccccc12 | 9% | 18µM* | -5% | ? | 2 | 10% |
| CC(=O)NCc1nnc2c3ccccc3c(-c3ccccc3)nn12 | 0% | -11% | · | -5% | 1 | 0% |
| O=C(NCc1nnc2c3ccccc3c(-c3ccccc3)nn12)c1ccc(Cl)cc1 | 3% | 21µM* | · | ? | -5 | -1% |

One compound at a time (already shown). Order of screens: Nrf2 ARE act | Nrf2 inh | ClpP mod | A549 viability | IL-2 act | miR-21 reporter
CC(=O)NCc1nnc2c3ccccc3c(-c3ccccc3)nn12 across the screens: 0% | -11% | · | -5% | 1 | 0%
O=C(Nc1nnc(-c2ccccc2F)s1)C1CCCO1 (centres undefined) across the screens: 3.2µM* | ? | -24% | -2% | 0 | -60%

The listing continues:
| compound | Nrf2 ARE act | Nrf2 inh | ClpP mod | A549 viability | IL-2 act | miR-21 reporter |
| --- | --- | --- | --- | --- | --- | --- |
| COc1ccc2c(c1)Cc1sc(NC(=O)c3cccc(C)c3)nc1-2 | 2% | 21µM* | -4% | -13% | · | 1% |
| CC(C)(C)OC(=O)NCCc1nnc(SCc2ccccc2Cl)o1 | 2% | 26µM* | 0% | · | -1 | -14% |
| CC(C)(C)OC(=O)NCCc1nnc(SCc2ccccc2)o1 | -1% | 0% | 1% | -5% | 0 | -5% |
| CC(C)=CCN1CCN(Cc2cccn2-c2ccccn2)CC1CCO (centres undefined) | 0% | -6% | 28µM* | -3% | 0 | 0% |
| CC(C)CN1CCN(Cc2cccn2-c2ccccn2)CC1CCO (centres undefined) | -1% | 9% | -4% | 19% | 2 | 3% |
| Cn1c(-c2ccccc2O)cc2ccccc21 | 2% | · | 16µM* | 8% | 1 | 1% |
| CC(OC(=O)CCCSc1nc2ccccc2s1)C(=O)NC(N)=O (centres undefined) | -1% | 16µM* | · | 5% | 0 | 21% |
| CCN(CC)C(=O)C1CCN(S(=O)(=O)c2ccc3oc4ccccc4c3c2)CC1 | 0% | 21µM* | -1% | -4% | -2 | 2% |
| CN(C(=O)CSc1nc(C2CCCC2)nc2c1c(=O)n(C)c(=O)n2C)c1ccccc1 | 0% | · | 1% | 3% | · | -4% |
| Oc1cc(NCc2ccc(F)cc2)cc2cccnc12 | -3% | ? | · | -14% | -2 | · |
| CN(C)CCCNc1cc(O)c2ncccc2c1 | -4% | 5.2µM* | · | 10µM* | 0 | · |
| COc1cccc(N2CCN(C(=O)C3CCC(CNS(=O)(=O)c4ccc(Br)s4)CC3)CC2)c1 (centres undefined) | 0% | 16µM* | -2% | -20% | · | 24% |
| COc1cccc(N2CCN(C(=O)C3CCCN(S(=O)(=O)c4ccc(Br)s4)C3)CC2)c1 (centres undefined) | 5% | 16µM* | -2% | -5% | · | ? |
| Cc1cccc(N2CCN(C(=O)C3CCCN(S(=O)(=O)c4ccc(Br)s4)C3)CC2)c1C (centres undefined) | -1% | 10µM* | -2% | -6% | · | ? |
| Cc1cccc(N2CCN(C(=O)c3cc(S(=O)(=O)N4CCCC4)cn3C)CC2)c1C | -2% | 18µM* | 1% | -7% | -1 | 25% |

From PubChem BioAssay
